“And” between values parts separate entries of the source, which are not always exact repeats. Equal values may be shown once. Where a name gives a salt, the structure may show the parent alone. Read-outs that look alike come from different tables or passages of the source.
Experiments:
[1] = molecular target: T1, MAO A (Homo sapiens, UniProt P21397); assay: MAO-Glo two-step bioluminescent assay, MAO A; assay type: biochemical; conditions: for IC50: substrate 20 µM
[2] = molecular target: T1, MAO A; conditions: direct assay without substrate preincubation ref Fowler et al., 1982, Ramsay et al., 2020, cited from earlier work
[3] = tested on: zebrafish brain; assay: Ex vivo bioavailability assay in fish brain (UPLC-HRMS or GC/MS); conditions: relative brain level per 1 mg/L
[4] = molecular target: MAO B (Homo sapiens, UniProt P27338); assay: MAO-Glo two-step bioluminescent assay, MAO B; assay type: biochemical

Amino acid sequences for entries named in this document (tags omitted).
UniProt P21397, whole entry, species assumed: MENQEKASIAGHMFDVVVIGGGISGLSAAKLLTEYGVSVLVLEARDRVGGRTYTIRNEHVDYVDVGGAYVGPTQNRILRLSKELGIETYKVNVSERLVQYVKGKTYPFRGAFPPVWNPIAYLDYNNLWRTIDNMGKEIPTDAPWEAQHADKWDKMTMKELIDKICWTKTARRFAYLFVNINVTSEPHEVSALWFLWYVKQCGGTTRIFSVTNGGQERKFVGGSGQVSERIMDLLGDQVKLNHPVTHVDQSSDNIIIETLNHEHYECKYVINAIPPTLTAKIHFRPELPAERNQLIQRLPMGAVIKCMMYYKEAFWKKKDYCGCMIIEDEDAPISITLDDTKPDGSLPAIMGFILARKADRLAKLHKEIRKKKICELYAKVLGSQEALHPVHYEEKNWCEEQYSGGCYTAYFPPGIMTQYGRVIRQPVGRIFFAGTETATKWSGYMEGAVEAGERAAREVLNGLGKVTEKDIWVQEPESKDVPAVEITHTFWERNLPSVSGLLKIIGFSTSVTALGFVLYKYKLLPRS
UniProt P27338, whole entry, species assumed: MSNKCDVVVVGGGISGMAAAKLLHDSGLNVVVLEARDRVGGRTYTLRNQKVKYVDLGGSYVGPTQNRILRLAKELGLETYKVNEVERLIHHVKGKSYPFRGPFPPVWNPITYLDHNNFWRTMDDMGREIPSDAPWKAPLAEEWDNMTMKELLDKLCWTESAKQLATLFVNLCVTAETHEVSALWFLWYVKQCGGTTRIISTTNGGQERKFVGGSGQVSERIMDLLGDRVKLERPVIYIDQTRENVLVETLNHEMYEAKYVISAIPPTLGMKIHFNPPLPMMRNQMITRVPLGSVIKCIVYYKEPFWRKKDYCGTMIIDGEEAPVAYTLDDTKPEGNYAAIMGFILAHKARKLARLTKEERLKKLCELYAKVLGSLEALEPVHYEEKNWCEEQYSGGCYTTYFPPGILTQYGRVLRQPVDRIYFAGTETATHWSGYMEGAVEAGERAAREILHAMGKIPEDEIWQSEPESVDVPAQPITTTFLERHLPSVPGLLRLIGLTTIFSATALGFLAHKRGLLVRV

Structure (SMILES)	IC50 ([1]; mean ± SEM, read-out: MAO a IC50) [µM]	Difference between Ki values of MAO A and MAO B [2] [fold]	Ki ([2]; read-out: Ki MAO A) [µM]	Ki [1] [µM]	IC50 ([1]; MAO a IC50, mean ± SEM)	Brain level relative to the rest of compounds tested [3]	MAO-A potency, fold less potent than harmane ([1]; from MAO-A IC50) [fold]	Selectivity between MAO A and B ([1]; present study)	IC50 [4] [µM]
c1ccc2c(c1)[nH]c1cnccc12 [Norharmane, norharmane]	1.05 ± 0.36								
C#CCN(C)Cc1ccccc1 [Pargyline, pargyline hydrochloride]		8	15	0.85	1.84 ± 0.79 µM				
c1ccc2c(c1)CCNC2 [TIQ, 1,2,3,4-tetrahydroisoquinoline]					20.9 µM and 33 µM	approximately 10 fold	400	no selectivity	50.2 ± 9.99

Source: PMC8165606, “Effects of Natural Monoamine Oxidase Inhibitors on Anxiety-Like Behavior in Zebrafish” (Frontiers in Pharmacology, 2021)
